Our source for the IC50 values is ChEMBL document CHEMBL1141302, “Anti-Helicobacter pylori and thrombin inhibitory components from Chinese dragon's blood, Dracaena cochinchinensis” (J Nat Prod, 2007).

This assay deals with Prothrombin (Homo sapiens, UniProt P00734). Description: Inhibition of human thrombin. Put shortly:
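Human thrombin incubated with compound and 20 µM fluorogenic Benzoyl-FVR-AMC in 50 mM Tris pH 8.0, 150 mM NaCl, 2.5 mM CaCl2, 2% DMSO. Cleavage followed as fluorescence change at 460 nm (excitation 355 nm) over 15 min at room temperature. IC50 derived from initial rates, fitted to replicate curves. Argatroban as positive control.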

On to `CC1CNc2c(cccc2S(=O)(=O)N[C@@H](CCCNC(=N)N)C(=O)N2CC[C@@H](C)C[C@@H]2C(=O)O)C1` (stereo partly specified) [ARGATROBAN], for which it took 5.4 nM to reach half-maximal inhibition (IC50).
